In PubChem BioAssay AID798 (PCMD, 2007):
Only a part is listed here, and it is no random draw. Some results for these compounds are left out of this collection, so the calls shown say nothing about other tests. Calls of active or inactive are those of the source.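 Rule for the calls: active = inhibition of at least 40%; inactive = inhibition below 40%.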

Amino acid sequences for entries named in this document (tags omitted). Residues count along the entry.
UniProt P03951, 19-387 limits assumed: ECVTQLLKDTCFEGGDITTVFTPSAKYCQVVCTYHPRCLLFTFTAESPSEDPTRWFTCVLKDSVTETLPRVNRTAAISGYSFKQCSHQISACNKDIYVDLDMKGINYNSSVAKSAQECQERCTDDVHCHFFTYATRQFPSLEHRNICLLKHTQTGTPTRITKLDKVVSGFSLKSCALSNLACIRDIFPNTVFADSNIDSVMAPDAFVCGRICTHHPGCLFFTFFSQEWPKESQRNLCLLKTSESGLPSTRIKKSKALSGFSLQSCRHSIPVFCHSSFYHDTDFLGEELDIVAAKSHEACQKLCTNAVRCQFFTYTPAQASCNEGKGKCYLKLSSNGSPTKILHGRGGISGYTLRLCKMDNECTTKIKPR
UniProt P03951, 388-625 limits assumed: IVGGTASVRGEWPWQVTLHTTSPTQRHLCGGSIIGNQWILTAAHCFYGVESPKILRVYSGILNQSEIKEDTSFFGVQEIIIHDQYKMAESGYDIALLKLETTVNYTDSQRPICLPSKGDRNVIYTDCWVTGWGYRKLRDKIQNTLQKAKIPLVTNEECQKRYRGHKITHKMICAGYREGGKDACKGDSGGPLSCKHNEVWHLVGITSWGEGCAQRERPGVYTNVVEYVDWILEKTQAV

These molecules were tested against Coagulation factor XI (Homo sapiens) (UniProt P03951) (assay: human FXIa protease inhibitors, primary screen, biochemical, 1536-well (AID 798;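 note: fluorescence of freed AMC excited at 355 nm; 0% = enzyme without compound and 100% = no enzyme blank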)). Conditions: purified FXIa, Boc-Glu-Ala-Arg-AMC fluorogenic substrate; at 5 µM; active compounds read high.

SMILES	inhibition
CCN1CCCC(OC(=O)C2(O)c3ccccc3C=Cc3ccccc32)C1 (stereo unspecified)	inactive: 17.1%
C=CCN1CCN(CCOC(=O)C(O)(c2ccccc2)c2ccccc2)CC1	inactive: -3.86%
CN(C)C1CCCC1OC(=O)C(O)(c1ccccc1)c1ccccc1 (stereo unspecified)	inactive: 1.98%
Cc1ccccc1C(=O)NCC1(N2CCCCC2)CCCCC1	inactive: 3.25%
CC(C)N1C(=O)CC2(CCN(CCOC(=O)C(O)(c3ccccc3)c3ccccc3)CC2)C1=O	inactive: -1.1%
CCN(CC)CC(C)C(C)OC(=O)C(O)(c1ccccc1)c1ccccc1 (stereo unspecified)	inactive: -1.16%
O=C(NCC1(N2CCCCC2)CCCCC1)c1cc([N+](=O)[O-])ccc1Cl	inactive: 1.69%
CN(C)c1cccc(C(=O)NCC2(N(C)C)CCCCC2)c1	inactive: 7.2%
COc1ccc(Br)c(C(=O)NCC2(N3CCCCC3)CCCCC2)c1	inactive: 11.7%
O=C(OC1CN2CCC1CC2)C(CO)(c1ccccc1)c1ccccc1 (stereo unspecified)	inactive: 4.46%
COc1cccc(C(=O)NCC2(N3CCCCC3)CCCCC2)c1	inactive: -1.2%
